# Experimental data reported in patent publication US20240385200A1, “COMPOSITIONS AND METHODS OF DETERMINING PH AND POTASSIUM CONCENTRATION IN SAMPLES” (The University of Chicago, priority 2023, published 2024).
# Amino acid sequences for entries named in this document (tags omitted). A change or cut given only in a name is not applied to a line headed by its entry.
# UniProt Q12809: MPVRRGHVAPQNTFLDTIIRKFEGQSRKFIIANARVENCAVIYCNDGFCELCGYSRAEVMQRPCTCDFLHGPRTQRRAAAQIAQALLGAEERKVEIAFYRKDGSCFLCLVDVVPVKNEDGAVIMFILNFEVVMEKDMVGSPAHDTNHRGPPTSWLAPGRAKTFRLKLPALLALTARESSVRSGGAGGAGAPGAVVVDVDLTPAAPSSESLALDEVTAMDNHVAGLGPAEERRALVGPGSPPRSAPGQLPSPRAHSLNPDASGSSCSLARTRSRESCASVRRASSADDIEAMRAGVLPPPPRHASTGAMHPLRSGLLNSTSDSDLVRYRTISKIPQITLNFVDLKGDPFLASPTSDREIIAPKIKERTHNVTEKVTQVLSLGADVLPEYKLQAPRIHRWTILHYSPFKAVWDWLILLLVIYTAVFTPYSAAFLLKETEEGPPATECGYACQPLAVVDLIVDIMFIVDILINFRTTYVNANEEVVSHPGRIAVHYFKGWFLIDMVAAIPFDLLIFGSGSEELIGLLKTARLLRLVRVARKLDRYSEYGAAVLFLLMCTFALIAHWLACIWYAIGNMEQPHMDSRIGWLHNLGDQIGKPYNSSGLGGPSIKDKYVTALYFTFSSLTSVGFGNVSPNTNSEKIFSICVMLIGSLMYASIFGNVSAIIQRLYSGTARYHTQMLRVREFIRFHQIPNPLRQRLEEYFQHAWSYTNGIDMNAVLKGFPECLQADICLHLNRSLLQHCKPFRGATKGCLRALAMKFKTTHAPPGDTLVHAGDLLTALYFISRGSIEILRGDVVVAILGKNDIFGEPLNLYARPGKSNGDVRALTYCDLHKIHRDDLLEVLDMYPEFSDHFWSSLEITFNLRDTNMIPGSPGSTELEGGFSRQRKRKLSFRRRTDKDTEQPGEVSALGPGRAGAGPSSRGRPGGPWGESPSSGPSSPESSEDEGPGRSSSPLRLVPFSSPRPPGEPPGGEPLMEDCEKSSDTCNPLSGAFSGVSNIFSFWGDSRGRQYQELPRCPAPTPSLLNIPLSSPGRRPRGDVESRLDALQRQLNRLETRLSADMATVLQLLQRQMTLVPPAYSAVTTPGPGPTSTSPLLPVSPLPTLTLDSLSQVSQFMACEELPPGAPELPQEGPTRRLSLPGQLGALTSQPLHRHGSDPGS
# How the values were obtained:
# [1] = tested on: HEK 293T cells lacking Kv11.1 channels (UT cells); conditions: TEA treatment
# Kv11.1 channels = Kv11.1 channels (Homo sapiens, UniProt Q12809); assay: Lumenal [K+]RE measured with pHlicKer^RE in cells expressing WT Kv11.1 after blocker treatment; conditions: WT Kv11.1 cells; TEA 10 mM or cisapride 10 μM, 10 min; untreated ~78 mM
# Description: EE and TGN pH and [K^+] measurements were carried out using pHlicKer^EE/TGN in HEK 293T cells transfected with hMSR1 and scFv-furin respectively. For EEs, HEK 293T cells were pulsed with 250 nM pHlicKer^EE for 10 min and chased for 10 min. For TGN, HEK 293T cells were pulsed with 250 nM pHlicKer^TGN for 90 min and chased for 90 min. Cells were washed with 1×PBS three times and then imaged. For recycling endosomes, HEK 293T cells were pulsed with 250 nM pHlicKer^RE for 15 min and chased for 30 min. Cells were washed with 1×PBS three times and then imaged using a widefield microscope.
# Calculating pH-corrected [K^+] in early endosomes, trans-Golgi network, and recycling endosomes. To correct for pH and obtain K^+ values, the Kd of pHlicKer in single endosomes was calculated based on the Kd calibration plot versus pH. The pH of the organelle was measured from the D/A values calibrated across pH 5.5-7.0. Donor (D) and acceptor (A) images were background subtracted by drawing a region of interest outside the cells. The D image was duplicated, and a threshold was set to create a binary mask. Background-subtracted D and A images were then multiplied with the binary mask to get processed D and A images.
compound,measurement,setting,value
"CC[N+](CC)(CC)CC.[Cl-] [TEA, tetraethyl ammonium chloride]",change of [K+]RE,[1],did not change
same,[K+]RE,Kv11.1 channels,~37 mM
